Key:
[1] = tested on: A549, HT-29, B16F10 and P388 tumour cells; test: In vitro cytotoxicity across the four tumour cell lines, compared with paclitaxel; format: cell-based, human and murine; details: IC50 across the four tumour cell lines
[2] = tested on: BDF mice bearing B16F10 ascites tumours; details: for Tolerated daily dosage relative to paclitaxel: daily i.p. doses; for Toxicity compared with paclitaxel: mouse, in vivo
[3] = Water solubility
[4] = tested on: A549; test: In vitro tumour cell cytotoxicity, colorimetric MTT assay, 72 h; format: cell-based, human; details: A549 cells, IC50 compared with paclitaxel
[5] = tested on: B16F10; test: as above; format: cell-based, murine; details: B16F10 cells, IC50 compared with paclitaxel

SMILES | Fold less potent than paclitaxel [1] | Fold less potent than paclitaxel ([1]; listed as 9-DH-t) | Tolerated daily dosage relative to paclitaxel [2] | Toxicity compared with paclitaxel [2] | Water solubility relative to paclitaxel [3] | Fold less potent than paclitaxel [4] | Fold less potent than paclitaxel [5]
CC(=O)O[C@@H]1C2=C(C)[C@@H](OC(=O)[C@H](O)[C@@H](NC(=O)c3ccccc3)c3ccccc3)C[C@@](O)([C@@H](OC(=O)c3ccccc3)[C@@H]3[C@]4(OC(C)=O)CO[C@@H]4C[C@H](O)[C@@]3(C)[C@H]1O)C2(C)C [Compound A-85576, 9-dihydrotaxol] | ≤ 8 fold | 3- to 5 fold | 4 fold | less toxic than paclitaxel | approximately 75 fold | – | –
CC(=O)OC12COC1CC(O)C1(C)C(O)C(O)C3=C(C)C(OC(=O)C(O)C(NC(=O)c4ccccc4)c4ccccc4)CC(O)(C(OC(=O)c4ccccc4)C21)C3(C)C (centres unmarked) [Compound A-86415, 10-deacetyl-9-dihydrotaxol] | ≤ 8 fold | – | 4 fold | less toxic than paclitaxel | approximately 20 fold | 3 fold | 8 fold
